According to patent US20110002953A1, “USE OF IMMIDAZOQUINOLINAMINES AS ADJUVANTS IN DNA VACCINATION” (priority 2000, published 2011):

Test system: ovalbumin-specific CD4+ T cells
Assay: Proliferation (tritiated thymidine uptake) of ovalbumin-specific CD4+ T cells from lymph nodes after pVAC1.OVA vaccination, adoptive transfer model
Type: in vivo, Balb/c mice
Description: Splenocytes were prepared as in example 1 above.
To measure the clonal expansion of CD4+ T cells following immunisation, proliferation of ovalbumin-specific T cells following re-challenge in vitro with cognate ovalbumin peptide, was assessed in lymph node preparations collected 3 days after immunisation.

CC(C)Cn1cnc2c(N)nc3ccccc3c21 [imiquimod, 1-(2-methylpropyl)-1H-imidazo[4,5-c]quinolin-4-amine]
proliferation, control plasmid (pVAC1) + imiquimod versus vehicle (empty vector pVAC1, imiquimod 30 mg/kg): No difference | proliferation, pVAC1.OVA + imiquimod compared with pVAC1.OVA + vehicle (imiquimod 30 mg/kg, lymph nodes 3 days after immunisation, re-challenge in vitro with ovalbumin peptide): more than twice | clonal expansion of CD4 T cells in vivo (FIG. 2) (in words): increases
